The list shows a part of the results, in another mix than the full data. Active and inactive are the calls of the source.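 Rule for the calls: active = thallium signal drop more than 5 SD beyond the mean of the no-compound control wells, seen in both duplicate plates; inactive = the rest.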
molecular target: Inward rectifier potassium channel 2 (Mus musculus) (UniProt P35561); test: off-target Kir2.1 potassium flux block – cell-based, HEK293, thallium flux, selectivity assay for KCNK9 modulator project, confirmation (AID 492993); settings: Kir2.1 cells, FluxOR thallium flux fluorescence; at 10 µM

By UniProt entry, the sequences of proteins in these tests, tags left out.
UniProt P35561, whole entry: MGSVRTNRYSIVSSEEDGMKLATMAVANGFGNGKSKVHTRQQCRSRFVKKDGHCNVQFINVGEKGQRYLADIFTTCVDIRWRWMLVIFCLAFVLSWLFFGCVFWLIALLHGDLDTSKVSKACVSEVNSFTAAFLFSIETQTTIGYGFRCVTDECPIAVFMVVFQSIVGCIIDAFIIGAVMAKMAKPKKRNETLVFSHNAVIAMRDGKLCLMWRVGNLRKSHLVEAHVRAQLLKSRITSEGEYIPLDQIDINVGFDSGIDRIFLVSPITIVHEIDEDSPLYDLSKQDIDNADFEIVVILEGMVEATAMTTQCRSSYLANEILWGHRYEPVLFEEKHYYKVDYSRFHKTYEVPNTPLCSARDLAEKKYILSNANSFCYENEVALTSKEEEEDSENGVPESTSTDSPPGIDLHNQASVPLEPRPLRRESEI

With COc1cccc(C(=O)N(c2cc(C)cc(C)c2)C2CCN(C(=O)OC(C)(C)C)CC2)c1 as the compound, how does the outcome read?
The outcome was “inactive”.

Which outcome does the source give for CC(C)(C)OC(=O)N1CCC(N(C(=O)c2ccccc2)c2ccc(Cl)cc2)CC1 here?
Its outcome is “inactive”.

Cc1cc(C)cc(N(C(=O)c2ccccc2)C2CCN(C(=O)OC(C)(C)C)CC2)c1 was tested. Which outcome did it give?
Its outcome is “inactive”.

Which outcome does the source give for CC(C)(C)OC(=O)N1CCC(N(C(=O)c2ccccc2)c2ccc(F)cc2)CC1 here?
The outcome was “inactive”.

— PubChem BioAssay AID492993 (Johns Hopkins Ion Channel Center, 2010)
